Target: ERβ (Homo sapiens, UniProt Q92731)
Assay type: binding

Sequences of proteins named here, by UniProt entry; tags and fusion partners are left off.
UniProt Q92731, whole entry: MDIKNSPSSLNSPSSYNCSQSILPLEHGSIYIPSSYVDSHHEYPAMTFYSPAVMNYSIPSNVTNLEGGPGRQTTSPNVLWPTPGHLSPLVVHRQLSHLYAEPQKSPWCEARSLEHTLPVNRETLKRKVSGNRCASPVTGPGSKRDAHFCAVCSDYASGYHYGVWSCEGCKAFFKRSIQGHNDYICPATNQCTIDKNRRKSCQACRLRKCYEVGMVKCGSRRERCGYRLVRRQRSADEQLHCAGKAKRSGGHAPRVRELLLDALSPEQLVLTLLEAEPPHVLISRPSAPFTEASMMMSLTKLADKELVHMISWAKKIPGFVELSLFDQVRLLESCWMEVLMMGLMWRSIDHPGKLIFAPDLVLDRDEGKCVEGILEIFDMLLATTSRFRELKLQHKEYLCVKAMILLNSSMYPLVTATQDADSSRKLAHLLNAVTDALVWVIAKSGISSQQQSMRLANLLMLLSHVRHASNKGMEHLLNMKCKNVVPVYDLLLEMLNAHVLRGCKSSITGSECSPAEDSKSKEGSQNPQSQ

Binding to ERβ in FP (competition with fluorescein labeled E2), result in words: binders
SMILES: C[C@]12CC[C@@H]3c4ccc(O)cc4CC[C@H]3[C@@H]1CC[C@@H]2O [E2, estradiol, reference compound]

From PMC4242290 (Nuclear Receptor Signaling, 2014)
